Molecular target: NAD-dependent protein deacylase sirtuin-5, mitochondrial (Homo sapiens, UniProt Q9NXA8)
Assay: Inhibition of SIRT5
In short: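 Recombinant SIRT5 at 50 ng/well (~30 nM, 50 μL) with succinyllysine AMC substrate and NAD in Tris-Cl pH 8.0/BSA buffer. Inhibitor dilutions were prepared in assay buffer from DMSO stocks. IC50 from nonlinear regression of dose–response, two assays in duplicate.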

The chains behind the UniProt entries cited, without tags or fusion partners. Where a name states a change or a piece, a line headed by the entry shows the natural chain unless it says otherwise.
UniProt Q9NXA8: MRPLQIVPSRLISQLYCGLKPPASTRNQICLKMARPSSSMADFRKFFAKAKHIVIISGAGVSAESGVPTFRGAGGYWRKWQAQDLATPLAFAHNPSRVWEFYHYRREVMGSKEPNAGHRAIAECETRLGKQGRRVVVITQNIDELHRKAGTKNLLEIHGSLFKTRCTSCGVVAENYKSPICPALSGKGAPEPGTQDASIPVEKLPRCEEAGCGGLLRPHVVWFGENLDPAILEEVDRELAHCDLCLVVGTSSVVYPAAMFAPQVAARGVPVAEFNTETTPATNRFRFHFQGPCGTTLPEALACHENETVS

CCCC(CCC)C(=O)O [VALPROIC ACID]
IC50: > 100 µM

Reference: ChEMBL document CHEMBL2163301, “Substrates for efficient fluorometric screening employing the NAD-dependent sirtuin 5 lysine deacylase (KDAC) enzyme” (J Med Chem, 2012)
